Results on one compound are retold here after ChEMBL document CHEMBL5034020, “Self-Masked Aldehyde Inhibitors: A Novel Strategy for Inhibiting Cysteine Proteases” (J Med Chem, 2021).

Chains of the proteins cited; added tags and fusions are not shown. Lines headed by an entry give the natural chain unless they say otherwise; changes in a name come on top.
UniProt P25779: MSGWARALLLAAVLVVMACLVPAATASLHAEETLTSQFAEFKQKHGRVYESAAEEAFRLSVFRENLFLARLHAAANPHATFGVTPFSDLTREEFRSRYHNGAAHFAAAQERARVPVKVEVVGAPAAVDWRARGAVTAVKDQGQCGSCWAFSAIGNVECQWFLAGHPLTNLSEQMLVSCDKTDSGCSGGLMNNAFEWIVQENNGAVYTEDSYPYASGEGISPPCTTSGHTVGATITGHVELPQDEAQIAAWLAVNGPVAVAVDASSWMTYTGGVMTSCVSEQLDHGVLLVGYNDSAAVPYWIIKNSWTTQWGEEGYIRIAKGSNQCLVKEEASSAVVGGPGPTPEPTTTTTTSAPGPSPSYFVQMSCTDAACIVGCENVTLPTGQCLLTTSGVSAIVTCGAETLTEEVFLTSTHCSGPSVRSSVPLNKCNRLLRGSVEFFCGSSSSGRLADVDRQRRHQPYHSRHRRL

In the test the target is Cruzipain (Trypanosoma cruzi) (UniProt P25779). Kind of test: Time dependent inhibition of Trypanosoma cruzi cruzain using Cbz-Phe-Arg-AMC as substrate assessed as association rate constant for EI complex measured over 30 mins.

Each structure is given as a SMILES string.

Consider `CN1CCN(C(=O)N[C@@H](Cc2ccccc2)C(=O)N[C@H]2Cc3ccccc3OC2O)CC1` (stereo partly specified), for which the Ka was 1.8 10^-4/s.
